Test results as given in patent US20230128969A1, “POLYURETHANE FOAM COMPOSITIONS WITH ANTIMICROBIAL PROPERTIES” (SANITIZED AG, priority 2020, published 2023).

Test system: Aspergillus niger-ATCC 9642, Penicillium funiculosum-ATCC 11797, Chaetomium globosum-ATCC 6205, Trichoderma virens-ATCC 9645, Aureobasidium pullulans-ATCC 15233
Assay: ASTM G21 strengthened (fungal growth on specimen, 28 days)
Type: cell-based, mold fungi (composite spore suspension)
Settings: memory foam A1; 0.3 pbw (B) with 0.5 pbw (C) dimethyltetradecyl(3-(trimethoxysilyl)propyl)ammonium chloride; (E) Diglyme 0.7 pbw

C1CN1
G21 (ASTM G21 strengthened rating): 4 (at least 60% of the surface is covered with mold fungi)
